Measurements published in PMC10157364 (2023).
Substitutions are numbered along the chain they refer to.

B1: ON203 (antibody, V domains shown)
VH: EVQLQESGGGLVQPGGSLRLSCAASGFTFSIYSMNWVRQAPGKGLEWVSSIGSSGGTTYYADSVKGRFTISRDNSKNTLYLQMNSLRAEDTAVYYCAGSQYLYGMDVWGQGTTVTVSS
VL: DIQMTQSPSSLSASVGDRVTITCRSSQRIMTYLNWYQQKPGKAPKLLIYVGSHSQSGVPSRFRGSGSETDFTLTISGLQPEDSATYYCQQSFFTPLTFGGGTKVEIK
B2: ON103 (antibody, V domains shown)
VH: B1 VH
VL: B1 VL with M30L, P80S
B3: C0008 (antibody, V domains shown)
VH: B1 VH with Q5L, Y101W
VL: B1 VL with Y49F, G51A, F93W

Target: mouse MIF treated with 0.2% Proclin300 (oxMIF surrogate) (mouse, UniProt P34884 1-115, treated with 0.2% Proclin300 to transform MIF into an oxMIF surrogate)
Assay: SPR

Row | Binder | Kd [µM]
1 | B1 | 0.0316
2 | B2 | 0.0286
3 | B3 | 0.0269
